Source: PMC9814687, “Controlling oncogenic KRAS signaling pathways with a Palladium-responsive peptide” (Communications Chemistry, 2022)
“Also recorded” adds a separate entry of the source.

Experiments:
KRAS^wt/mantGTP complex = target: T1, KRAS^wt/mantGTP complex (Homo sapiens, UniProt P01116); test: Nucleotide release assay (mantGTP displacement); type: biochemical; settings: 1 μM KRAS^wt/mantGTP, 10 μM peptide, 20 mM Tris-HCl pH 7.5, 50 mM NaCl, 1 mM MgCl2, 1 mM DTT; emission 430 nm over 30 min; intrinsic half-life about 7 min
T1 construct: 6xHis (6H) (N); TEV cleavage site (N); host or cells: E. coli BL21

KRAS^wt = target: T2, KRAS^wt (Homo sapiens, UniProt P01116); test: Fluorescence anisotropy titration with KRAS^wt; type: binding; settings: 15 nM peptide without Pd(II), increasing KRAS, Tris-HCl 20 mM pH 7.5, 100 mM NaCl, 25 °C
T2 construct: 6xHis (6H) (N); TEV cleavage site (N); host or cells: E. coli BL21

Substance: TMR-Ahx-RRFFGIHLTNHLKTEEGN [αH-His2]
- half-life of the KRAS^wt/mantGTP complex (KRAS^wt/mantGTP complex): ≈ 5 min
- binding to KRAS (change of TMR fluorescence anisotropy), in words (KRAS^wt): low binding affinity; also recorded: no significant binding
